Source: BindingDB's records for 18337104

Chains of the proteins cited; added tags and fusions are not shown. Lines headed by an entry give the natural chain unless they say otherwise; changes in a name come on top.
UniProt P41144: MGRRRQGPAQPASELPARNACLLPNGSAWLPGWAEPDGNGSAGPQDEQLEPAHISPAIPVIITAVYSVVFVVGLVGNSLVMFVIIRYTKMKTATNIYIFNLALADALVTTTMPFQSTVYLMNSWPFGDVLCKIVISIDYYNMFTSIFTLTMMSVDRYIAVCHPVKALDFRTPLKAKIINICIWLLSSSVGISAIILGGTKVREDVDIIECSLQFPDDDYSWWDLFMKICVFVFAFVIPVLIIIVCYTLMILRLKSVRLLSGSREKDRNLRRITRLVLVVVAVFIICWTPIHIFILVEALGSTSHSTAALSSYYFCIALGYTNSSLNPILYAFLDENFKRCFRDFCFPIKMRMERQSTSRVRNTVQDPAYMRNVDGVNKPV

Biological target: Kappa-type opioid receptor (Cavia porcellus, UniProt P41144)
Assay: Displacement of [3H]U69593 from kappa opioid receptor in guinea pig cerebellum

CN(C(=O)Cc1ccc(Cl)c(Cl)c1)[C@@H]1CCCC[C@H]1N1CCCC1
IC50: 1.14 nM
